# Laboratory results from article PMC10295947 (Biomolecules, 2023).
# Sequences of proteins named here, by UniProt entry; tags and fusion partners are left off.
# UniProt P42866, whole entry: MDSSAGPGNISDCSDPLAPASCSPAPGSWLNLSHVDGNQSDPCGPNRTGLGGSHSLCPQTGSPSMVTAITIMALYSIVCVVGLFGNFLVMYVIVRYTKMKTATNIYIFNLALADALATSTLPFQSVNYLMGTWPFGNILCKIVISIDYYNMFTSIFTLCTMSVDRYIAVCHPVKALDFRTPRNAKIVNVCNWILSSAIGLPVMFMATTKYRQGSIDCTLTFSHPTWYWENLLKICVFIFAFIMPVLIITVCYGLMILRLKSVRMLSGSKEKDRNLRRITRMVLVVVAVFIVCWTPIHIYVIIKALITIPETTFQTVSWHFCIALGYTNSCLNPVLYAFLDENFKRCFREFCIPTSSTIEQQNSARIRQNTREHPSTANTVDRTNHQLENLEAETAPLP
# Experiments:
# MOR [1] = target: T1, MOR (Mus musculus, UniProt P42866); assay: biochemical; assay type: biochemical
# MOR [2] = target: T1, MOR; assay: biochemical
SMILES,Emax (MOR [1]) [%],IC50 (MOR [2]) [µM],EC50 (MOR [1])
"CN1CC[C@]23c4c5ccc(O)c4O[C@H]2[C@@H](O)C=C[C@H]3[C@H]1C5 [morphine, Morphine sulfate pentahydrate]",~50,–,–
"COc1ccsc1CNCC[C@@]1(c2ccccn2)CCOC2(CCCC2)C1 [oliceridine, Oliceridine hydrochloride]",–,0.203,not converged

# Where a name gives a salt, the structure may show the parent alone.
